Measurements from patent publication US5229109A, “Low toxicity interleukin-2 analogues for use in immunotherapy” (priority 1992, dated 1993).

How the values were obtained:
[1] = system: Daudi targets; experiment: LAK generation, 4 hour 51Cr release cytotoxicity assay; format: cell-based, human; conditions: 100:1 effector:target ratio; 0.5 nM native IL-2 or 1 nM mutants
Description: The abilities of optimal concentrations of IL-2 and the analogues to stimulate peripheral blood mononuclear cells to generate lymphokine activated killing (LAK) in vitro were next compared.
Fresh peripheral blood mononuclear cells (PBMC) obtained from leukopharesis of normal human donors were isolated over a Ficoll-Hypaque gradient. […] Non-adherent cells were tested for cytotoxicity against Daudi targets by a 4 hour ^51 Cr release assay, with specific lysis being presented as the mean of triplicate values. Cell-free supernatants from 3 day PBMC cultures were analyzed by ELISA for cytokine content.

[2] = system: IL-2 receptor p55 on PBMC; experiment: FACS analysis of p55 expression on cultured PBMC; format: cell-based, human; conditions: cultures stimulated for 72 hours
Description: Cultured PBMC were washed with PBS, 1% bovine serum albumin (BSA), and 0.1% sodium azide. To approximately one million cells, FITC-labelled monoclonal antibody against IL-2 receptor p55 or a non-specific control mouse IgG (Becton-Dickinson) was added. Following incubation for 30 minutes, the cells were washed twice using a Sorvall cell washer 2L, then fixed in PBS and 1% paraformaldehyde. The cells were then analyzed on Becton-Dickinson FACScan and results were presented as per cent of gated cells positive for p55 after subtraction of non-specific background fluorescence.

[3] = system: renal cell carcinoma / cancer patients; conditions: cited from earlier work

native IL-2: native recombinant human interleukin 2, comparator cytokine
% maximal specific lysis [1]: 62% | percentage of cells expressing p55 doubled [2]: nor | tolerated fraction of the optimal dose derived from animal studies ([3]; humans): ≤ 10% | renal cancer patients exhibiting signs of tumor regression ([3]; optimal tolerable dosage): around 20%
